From PubChem BioAssay AID1224864 (Chung Lab, Department of Pediatrics, Emory University, 2016) come the findings set out here.

By UniProt entry, the sequences of proteins in these tests, tags left out.
UniProt P13569, whole entry, looked up, stated change not applied: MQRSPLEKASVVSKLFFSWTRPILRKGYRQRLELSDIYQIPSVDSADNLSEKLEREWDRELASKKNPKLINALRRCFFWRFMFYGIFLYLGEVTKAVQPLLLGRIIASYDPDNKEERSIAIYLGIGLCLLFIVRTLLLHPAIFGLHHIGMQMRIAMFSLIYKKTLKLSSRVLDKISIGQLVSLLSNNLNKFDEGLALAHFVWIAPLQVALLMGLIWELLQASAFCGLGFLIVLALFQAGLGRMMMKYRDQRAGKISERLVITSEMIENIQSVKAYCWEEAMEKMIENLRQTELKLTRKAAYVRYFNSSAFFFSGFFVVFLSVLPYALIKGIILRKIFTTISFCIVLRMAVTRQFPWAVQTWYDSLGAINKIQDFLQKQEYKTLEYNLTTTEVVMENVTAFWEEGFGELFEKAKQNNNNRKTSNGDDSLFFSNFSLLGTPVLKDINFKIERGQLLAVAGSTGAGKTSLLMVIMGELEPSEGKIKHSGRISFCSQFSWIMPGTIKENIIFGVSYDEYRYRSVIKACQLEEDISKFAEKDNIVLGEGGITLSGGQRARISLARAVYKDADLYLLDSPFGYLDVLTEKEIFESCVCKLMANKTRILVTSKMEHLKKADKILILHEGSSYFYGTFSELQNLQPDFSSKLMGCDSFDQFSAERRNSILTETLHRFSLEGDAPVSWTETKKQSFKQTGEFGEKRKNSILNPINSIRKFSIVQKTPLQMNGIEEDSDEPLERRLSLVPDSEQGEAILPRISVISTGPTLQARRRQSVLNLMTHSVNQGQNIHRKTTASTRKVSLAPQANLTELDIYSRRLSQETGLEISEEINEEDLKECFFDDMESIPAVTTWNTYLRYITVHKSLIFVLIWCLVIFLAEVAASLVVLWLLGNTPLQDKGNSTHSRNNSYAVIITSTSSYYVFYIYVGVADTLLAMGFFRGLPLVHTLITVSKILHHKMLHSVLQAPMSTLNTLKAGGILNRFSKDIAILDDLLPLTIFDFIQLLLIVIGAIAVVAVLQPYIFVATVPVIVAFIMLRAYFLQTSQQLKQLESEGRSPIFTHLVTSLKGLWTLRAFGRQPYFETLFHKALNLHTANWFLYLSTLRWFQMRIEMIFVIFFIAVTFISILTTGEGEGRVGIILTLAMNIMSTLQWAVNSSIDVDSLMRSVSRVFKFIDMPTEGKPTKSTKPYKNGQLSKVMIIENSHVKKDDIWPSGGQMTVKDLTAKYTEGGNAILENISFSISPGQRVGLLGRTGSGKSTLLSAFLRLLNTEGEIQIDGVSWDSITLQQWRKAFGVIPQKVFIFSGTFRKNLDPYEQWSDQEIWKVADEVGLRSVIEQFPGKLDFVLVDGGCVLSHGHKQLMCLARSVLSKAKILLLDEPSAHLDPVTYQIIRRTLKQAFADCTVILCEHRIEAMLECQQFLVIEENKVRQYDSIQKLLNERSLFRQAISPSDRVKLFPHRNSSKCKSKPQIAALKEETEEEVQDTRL

Only a part is listed here, and it is no random draw. Active and inactive are the calls of the source. How the calls were made is not given here.

For the assay, the target named is Cystic fibrosis transmembrane conductance regulator (Homo sapiens) (UniProt P13569). As to the kind of experiment: correctors of F508del-CFTR surface localization, primary screen, imaging, HeLa, high-content microscopy, immunofluorescence (AID 1224864).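 Further: HeLa cells stably expressing F508del-CFTR stained with 3G11 antibody against NBD1; mean immunofluorescence in a thin cell-margin band taken as plasma membrane.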 As to conditions: PM immunofluorescence imaging, 24 h, at 10 µM, stronger effect = higher value, relative to vehicle wells set at 100.
Take `CN(C(=O)Cc1ccc(Cl)c(Cl)c1)[C@@H]1CCCC[C@H]1N1CCCC1`: the plasma membrane CFTR intensity was inactive: 82%.
